In patent US9452185B2, “Mesenchymal stem cells and supports for tissue regeneration, repair and reconstruction” (THE TEXAS A&M UNIVERSITY SYSTEM, priority 2009, dated 2016):

Test system: hMSCs
Assay: Alkaline phosphatase (ALP) activity of hMSCs in osteogenic media
Type: cell-based, human
Conditions: OBM with BMP2 100 or 200 ng·mL-1, 3 donors
Experimental: For non-mineralizing osteogenic differentiation, hMSCs were plated in 12-well plates at 100 cells cm^−2. Upon reaching about 70% confluency, the media was changed to osteogenic base media (OBM) containing 50 μg mL^−1 ascorbic acid and 5 mM β-glycerol phosphate and either GW9662 or DMSO. Media was changed every 2 days for 8-10 days following measurement of ALP activity. For this purpose, the monolayer was washed with PBS and then with ALP reaction buffer (100 mM Tris-HCl, pH 9, containing 100 mM KCl and 1 mM MgCl2). One half mL of ALP buffer then 0.5 mL p-nitrophenol phosphate (PNPP) was rapidly added to the wells. ALP activity was measured as the rate of PNPP conversion to p-nitrophenolate by monitoring the absorbance at 405 nm every 30 seconds for 9 minutes using a plate reader. The rates were normalized against cell number and statistically analyzed using one-way analysis of variance (ANOVA) and Tukey post test for multiple comparisons or by Student's t-test, for single, unrelated comparisons.
Early osteogenic differentiation and alkaline phosphatase assays. […]
In order to characterize the influence of 7AIPM on osteogenic differentiation, hMSC's from two donors were cultured as described elsewhere herein with the addition of varying concentrations of the compound or vehicle to the media. […] These samples were analyzed for the presence of OPG and Dkk-1 using ELISA. […]

- ALP levels: improved further
Substance: bone morphogenic protein 2 [BMP2]
